Earlier results, collected in US11648313B2, “Multimodal therapy for cancer cell destruction” (Southeast Missouri State University, priority 2015, dated 2023).

Test system: SH-SY5Y cells
Details: long-term exposure

Substance: interferonβ
- activation of PI3K-AKT pathway: decreased activation of P13K-AKT pathway
